Test: Area under the curve (AUC) and increase ratio (ER) of FD-4 in plasma after oral administration to Wistar rats
Experimental: Next, FD-4 was orally administered to Wistar rats using an oral sonde so that the dosage was 0.3 mg/kg. After the administration of the sample, blood was collected six times in total until six hours after the administration of the sample, and plasma was fractionated.
It is noted that “AUCt” is AUC (ng·h/mL) of the test preparation, and “dosage t” is dosage (mg/kg) of the test preparation (target data of the test preparation obtained in the above 2).

## fluorescein isothiocyanate-dextran 4 [Comparative Example 4]
FD-4 dosage 5.0 mg/kg, based on Comparative Example 4 at 0.3 mg/kg
  ER (increase ratio of AUC in consideration of dosage): 0.96
Wistar rats, oral, FD-4 dosage 0.3 mg/kg, 0.25 hr after administration
  concentration of FD-4 in plasma, Time 0.25 hr: 3.0
Wistar rats, oral, FD-4 dosage 0.3 mg/kg, 0.5 hr after administration
  concentration of FD-4 in plasma, Time 0.5 hr: 4.1
Wistar rats, oral, FD-4 dosage 0.3 mg/kg, 1 hr after administration
  concentration of FD-4 in plasma, Time 1 hr: 3.0
Wistar rats, oral, FD-4 dosage 0.3 mg/kg, 2 hr after administration
  concentration of FD-4 in plasma, Time 2 hr: 4.2
Wistar rats, oral, FD-4 dosage 0.3 mg/kg, 4 hr after administration
  concentration of FD-4 in plasma, Time 4 hr: 4.8
Wistar rats, oral, FD-4 dosage 0.3 mg/kg, 6 hr after administration
  concentration of FD-4 in plasma, Time 6 hr: 4.0
